Patent publication US12662479B2 (Foghorn Therapeutics Inc., priority 2020, dated 2026)

Amino acid sequences for entries named in this document (tags omitted).
UniProt P51531, whole entry: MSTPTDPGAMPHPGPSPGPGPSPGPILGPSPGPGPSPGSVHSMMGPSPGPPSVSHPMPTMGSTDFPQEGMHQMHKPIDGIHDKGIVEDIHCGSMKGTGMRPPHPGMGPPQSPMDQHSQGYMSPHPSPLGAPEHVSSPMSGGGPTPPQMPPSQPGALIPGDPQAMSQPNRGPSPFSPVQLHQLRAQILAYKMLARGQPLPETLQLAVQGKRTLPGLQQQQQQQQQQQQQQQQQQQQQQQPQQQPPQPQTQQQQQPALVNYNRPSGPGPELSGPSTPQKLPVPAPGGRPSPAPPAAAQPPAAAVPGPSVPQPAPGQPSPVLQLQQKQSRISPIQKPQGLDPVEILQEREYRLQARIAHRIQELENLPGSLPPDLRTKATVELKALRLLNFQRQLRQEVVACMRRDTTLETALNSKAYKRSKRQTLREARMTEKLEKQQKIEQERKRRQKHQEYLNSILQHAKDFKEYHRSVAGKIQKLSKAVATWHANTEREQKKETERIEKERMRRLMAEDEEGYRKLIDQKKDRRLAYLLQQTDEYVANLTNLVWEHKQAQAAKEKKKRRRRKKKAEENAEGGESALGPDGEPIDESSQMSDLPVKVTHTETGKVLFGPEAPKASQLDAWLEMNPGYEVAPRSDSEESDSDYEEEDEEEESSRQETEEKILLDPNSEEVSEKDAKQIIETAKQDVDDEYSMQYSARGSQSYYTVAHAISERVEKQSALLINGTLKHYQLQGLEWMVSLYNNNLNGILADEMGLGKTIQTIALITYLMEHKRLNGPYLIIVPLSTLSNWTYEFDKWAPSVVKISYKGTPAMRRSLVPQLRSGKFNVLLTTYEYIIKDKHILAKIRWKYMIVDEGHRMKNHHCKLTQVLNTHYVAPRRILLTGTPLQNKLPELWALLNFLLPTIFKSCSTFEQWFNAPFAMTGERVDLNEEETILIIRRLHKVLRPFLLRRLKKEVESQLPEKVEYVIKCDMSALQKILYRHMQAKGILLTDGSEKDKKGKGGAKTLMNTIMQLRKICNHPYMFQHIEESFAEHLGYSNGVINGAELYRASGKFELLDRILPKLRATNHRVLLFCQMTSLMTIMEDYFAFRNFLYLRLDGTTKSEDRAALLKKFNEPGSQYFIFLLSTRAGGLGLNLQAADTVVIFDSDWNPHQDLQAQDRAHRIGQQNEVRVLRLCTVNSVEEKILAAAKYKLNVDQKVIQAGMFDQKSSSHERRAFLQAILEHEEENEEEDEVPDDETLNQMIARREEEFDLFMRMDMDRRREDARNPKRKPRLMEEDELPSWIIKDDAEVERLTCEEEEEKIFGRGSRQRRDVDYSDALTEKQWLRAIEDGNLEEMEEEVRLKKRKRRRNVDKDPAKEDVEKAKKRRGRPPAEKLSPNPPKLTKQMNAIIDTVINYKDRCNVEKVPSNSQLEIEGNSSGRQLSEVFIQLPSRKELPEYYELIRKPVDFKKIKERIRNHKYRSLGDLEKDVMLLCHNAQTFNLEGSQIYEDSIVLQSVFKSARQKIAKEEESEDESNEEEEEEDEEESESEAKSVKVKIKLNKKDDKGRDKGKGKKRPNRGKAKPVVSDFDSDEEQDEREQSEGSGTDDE
UniProt P51532, whole entry: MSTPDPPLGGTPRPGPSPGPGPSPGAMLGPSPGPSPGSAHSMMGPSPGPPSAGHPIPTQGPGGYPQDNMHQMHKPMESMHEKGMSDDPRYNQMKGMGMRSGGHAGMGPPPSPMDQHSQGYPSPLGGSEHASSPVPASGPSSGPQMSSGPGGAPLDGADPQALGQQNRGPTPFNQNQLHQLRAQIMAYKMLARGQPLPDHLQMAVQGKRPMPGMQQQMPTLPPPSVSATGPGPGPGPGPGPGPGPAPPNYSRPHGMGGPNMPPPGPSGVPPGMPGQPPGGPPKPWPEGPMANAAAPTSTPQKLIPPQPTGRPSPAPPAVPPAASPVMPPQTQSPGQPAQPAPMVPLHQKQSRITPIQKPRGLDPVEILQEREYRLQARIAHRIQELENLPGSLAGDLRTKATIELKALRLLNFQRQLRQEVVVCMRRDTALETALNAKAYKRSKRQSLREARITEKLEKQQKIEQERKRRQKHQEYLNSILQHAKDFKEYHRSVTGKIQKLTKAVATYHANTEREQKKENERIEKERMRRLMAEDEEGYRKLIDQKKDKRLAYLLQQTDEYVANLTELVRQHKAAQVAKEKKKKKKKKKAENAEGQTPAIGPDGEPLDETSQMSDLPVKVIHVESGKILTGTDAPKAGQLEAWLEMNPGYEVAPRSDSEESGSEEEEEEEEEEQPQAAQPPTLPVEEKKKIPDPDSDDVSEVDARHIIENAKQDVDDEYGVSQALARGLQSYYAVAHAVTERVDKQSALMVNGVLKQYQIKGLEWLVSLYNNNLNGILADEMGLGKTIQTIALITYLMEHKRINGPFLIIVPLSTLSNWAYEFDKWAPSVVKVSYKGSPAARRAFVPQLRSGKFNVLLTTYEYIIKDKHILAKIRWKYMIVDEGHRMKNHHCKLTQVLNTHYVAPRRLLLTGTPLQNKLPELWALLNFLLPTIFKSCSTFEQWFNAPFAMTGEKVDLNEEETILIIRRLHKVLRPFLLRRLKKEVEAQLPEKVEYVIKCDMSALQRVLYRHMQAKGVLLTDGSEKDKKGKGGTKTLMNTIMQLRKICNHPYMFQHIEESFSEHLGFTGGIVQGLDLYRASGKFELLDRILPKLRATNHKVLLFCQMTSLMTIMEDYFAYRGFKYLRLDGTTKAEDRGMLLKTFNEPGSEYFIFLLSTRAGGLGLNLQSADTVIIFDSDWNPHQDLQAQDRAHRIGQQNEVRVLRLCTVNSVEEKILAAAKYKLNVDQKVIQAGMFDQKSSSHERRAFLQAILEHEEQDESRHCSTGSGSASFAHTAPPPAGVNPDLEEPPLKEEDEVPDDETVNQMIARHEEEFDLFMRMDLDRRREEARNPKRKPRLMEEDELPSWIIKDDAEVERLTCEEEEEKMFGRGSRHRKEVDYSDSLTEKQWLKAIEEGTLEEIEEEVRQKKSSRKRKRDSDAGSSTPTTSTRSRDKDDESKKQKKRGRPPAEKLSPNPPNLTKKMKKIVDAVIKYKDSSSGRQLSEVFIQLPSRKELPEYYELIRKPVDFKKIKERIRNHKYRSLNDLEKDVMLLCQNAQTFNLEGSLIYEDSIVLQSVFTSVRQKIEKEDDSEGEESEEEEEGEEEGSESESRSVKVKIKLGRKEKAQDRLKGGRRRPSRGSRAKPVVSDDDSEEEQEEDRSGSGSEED

How the values were obtained:
HiBit-BRM fusion protein = HiBit-BRM fusion protein (Homo sapiens, UniProt P51531); experiment: HiBiT-BRM cell-based degradation assay (Nano-Glo HiBiT Lytic Detection, 24 h)
Description: Procedure: A stable HeLa cell line expressing HiBiT-BRM was generated. On day 0, 5000 cells were seeded in 40 μL of media into each well of 384-well cell culture plates. On day 1, cells were treated with 120 nL DMSO or 120 nL of 3-fold serially DMSO-diluted compounds (10 points in duplicate with 30 μM as final top dose). Subsequently plates were incubated for 24 h in a standard tissue culture incubator and equilibrated at room temperature for 15 minutes. Nano-Glo HiBiT Lytic Detection System (Promega N3050) reagent was freshly prepared and 20 ul was added to each well. Upon addition of this LgBit-containing reagent, the HiBiT and LgBiT proteins associate to form the luminescent NanoBiT luciferase. The plates were shaken for 10 minutes at room temperature and the bioluminescence read using an EnVision plate reader (PerkinElmer).
The degradation % was calculated using the following formula: % degradation=100%−100%×(LumSample−LumLC)/(LumHC−LumLC). DMSO treated cells are employed as High Control (HC) and 2 μM of a known BRM/BRG1 degrader standard treated cells are employed as Low Control (LC).

[1] = molecular target: HiBit-BRG1 fusion protein (Homo sapiens, UniProt P51532); experiment: HiBiT-BRG1 cell-based degradation assay (Nano-Glo HiBiT Lytic Detection, 24 h)

Cc1c(C(=O)NCC(=O)Nc2nc(-c3cccc(-c4ccnc(C5(C(=O)NCCCCCCCCNc6ccc7c(c6)C(=O)N(C6CCC(=O)NC6=O)C7=O)CC5)c4)c3)cs2)cn(S(C)(=O)=O)c1C (stereo not shown)
BRM HiBit Degradation Maximum measured (HiBit-BRM fusion protein; HeLa cells expressing HiBiT-BRM, top dose 30 μM): C (‘C’ = Maximum degradation <50%)
IC50 (HiBit-BRM fusion protein; read-out: BRM HiBit Degradation IC50, HeLa cells expressing HiBiT-BRM): > 10000 nM
BRG1 HiBit Degradation Maximum measured ([1]; HeLa cells expressing HiBit-BRG1 and LgBit, top dose 30 μM): B (‘B’ = Maximum degradation ≥50% and ≤75%)
IC50 ([1]; read-out: BRG1 HiBit Degradation IC50, HeLa cells expressing HiBit-BRG1 and LgBit): 100 to 1000 nM
